Assay results taken from publication PMC12153294 (mBio, 2025).

Test system: JHMV
Type: cell-based, murine hepatitis virus (MHV)
Conditions: 150 μM, DBT cells

## COC(=O)[C@H](Cc1c[nH]c2ccccc12)Nc1ncnc2[nH]ccc12 [Compound 5a]
  Inhibition of infectious virus production: ~ 0.5 logs
